System: Human immunodeficiency virus 1
Experiment: Antiviral activity against HIV-1 subtype F V029522 infected in human MT4 cells assessed as inhibition of viral replication relative to HIV-1 3B
Format: functional
Procedure, shortened: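 MT-4 cells (3 x 10^4/well) infected with site-directed mutants or recombinant clinical isolates (200 TCID50/well) with drug, cultured 3 to 5 days. Viability read by MTT colorimetric antivirogram assay. IC50 by nonlinear regression; fold change = IC50 for the test isolate / IC50 for wild-type HIV-1 IIIB tested in parallel (mean or median).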

## CC(C)Nc1cccnc1N1CCN(C(=O)c2cc3cc(NS(C)(=O)=O)ccc3[nH]2)CC1 [DELAVIRDINE]
  Ratio IC50: 3.1

From ChEMBL document CHEMBL1671644, “Inhibition of human immunodeficiency virus type 1 infection by the candidate microbicide dapivirine, a nonnucleoside reverse transcriptase inhibitor” (Antimicrob Agents Chemother, 2009)
